Results: patent publication US12358915B2, “METTL3 inhibitory compounds” (STORM THERAPEUTICS LTD., priority 2019, dated 2025)

Sequences of proteins named here, by UniProt entry; tags and fusion partners are left off.
UniProt Q86U44, whole entry: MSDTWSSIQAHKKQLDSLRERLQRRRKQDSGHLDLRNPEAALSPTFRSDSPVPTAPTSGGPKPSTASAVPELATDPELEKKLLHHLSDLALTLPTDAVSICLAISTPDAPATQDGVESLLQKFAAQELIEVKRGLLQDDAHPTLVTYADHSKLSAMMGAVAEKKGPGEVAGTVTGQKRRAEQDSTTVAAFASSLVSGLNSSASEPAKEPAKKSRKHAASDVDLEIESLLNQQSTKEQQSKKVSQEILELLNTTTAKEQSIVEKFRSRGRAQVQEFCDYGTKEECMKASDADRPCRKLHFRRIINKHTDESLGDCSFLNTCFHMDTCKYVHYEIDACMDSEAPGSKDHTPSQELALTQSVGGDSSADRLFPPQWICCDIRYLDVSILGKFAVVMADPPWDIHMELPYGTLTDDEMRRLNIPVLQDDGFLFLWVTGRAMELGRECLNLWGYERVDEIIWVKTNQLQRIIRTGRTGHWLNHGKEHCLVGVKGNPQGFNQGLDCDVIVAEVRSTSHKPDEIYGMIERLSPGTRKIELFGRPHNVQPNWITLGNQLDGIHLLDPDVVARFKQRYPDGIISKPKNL
UniProt Q9HCE5, whole entry partner: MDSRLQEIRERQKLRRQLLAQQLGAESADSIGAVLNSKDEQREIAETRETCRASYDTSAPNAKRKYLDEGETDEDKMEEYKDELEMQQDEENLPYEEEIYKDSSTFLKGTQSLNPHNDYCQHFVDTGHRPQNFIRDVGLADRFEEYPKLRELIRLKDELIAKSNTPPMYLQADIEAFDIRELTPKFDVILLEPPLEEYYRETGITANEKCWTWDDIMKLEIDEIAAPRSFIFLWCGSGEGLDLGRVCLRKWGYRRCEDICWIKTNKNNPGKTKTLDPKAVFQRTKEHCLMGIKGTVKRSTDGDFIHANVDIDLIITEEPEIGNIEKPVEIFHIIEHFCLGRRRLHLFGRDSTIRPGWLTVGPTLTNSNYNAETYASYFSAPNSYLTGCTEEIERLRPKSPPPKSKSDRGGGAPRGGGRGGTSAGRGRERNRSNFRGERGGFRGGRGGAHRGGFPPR

Biological target: METTL3/14 (Homo sapiens, UniProt Q86U44)
Experiment: METTL3/14 methyltransferase assay (METTL3_14 RFMS, RapidFire mass spectrometry);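 note: recombinant His-tagged METTL3 with FLAG-tagged METTL14 from baculovirus, SAH product quantified by mass spectrometry against isotope-labelled internal standards, 60 min at room temperature, scaled between no-RNA and DMSO-only wells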
Assay type: biochemical
Conditions: read-out: METTL3_14 RFMS IC50; 5 nM METTL3/14, 0.2 μM RNA substrate, 0.5 μM SAM; lower limit of the assay IC50=5 nM; Compounds 63-265

IC50: 68 nM
SMILES: O=C(NCc1cn2cc(CNC3CCCCC3)ccc2n1)c1cc(=O)c2ccccc2o1
